Measurements from PubChem BioAssay AID1945 (The Scripps Research Institute Molecular Screening Center, 2009).
The list shows a part of the results, in another mix than the full data. Active and inactive are the calls of the source. No stated cut-off is given here; in the data, active means inhibition above about 37%; inactive means the rest.

Test: DNA intercalator displacement agents – biochemical, FID fluorescence, triplicate, artefact control for HCV NS3 helicase inhibitor project (AID 1945);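 further: 0% = vehicle and 100% = reference compound; higher means more displacement of ethidium bromide from the DNA hairpin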
Settings: DNA fluorescent intercalator displacement, at 7.9 µM, hits give high values

Row | Compound | inhibition
1 | Nc1cccc2c([As](=O)(O)O)cccc12 | inactive: -2.59%
2 | C[N+]1=C2C=CC=CC=C2SC12C([N+](=O)[O-])=CC([N+](=O)[O-])=C[C-]2[N+](=O)[O-] (stereo not drawn) | inactive: 18.5%
3 | O=[N+]([O-])c1cc([N+](=O)[O-])c(CCN2CCOCC2)c([N+](=O)[O-])c1 | inactive: 31.9%
